Values quoted from earlier work as cited in article PMC6397219, “Rapid one-step ^18F-radiolabeling of biomolecules in aqueous media by organophosphine fluoride acceptors” (Nature Communications, 2019).

Conditions: cited from earlier work

Substance: Human serum albumin
- plasma half-life: 16 to 18 h
